Patent US8480647B2, “Delivery device for delivering bioactive agents to internal tissue in a body” (Bioprotect Ltd., priority 2007, dated 2013)

Assays:
[1] = Release of loaded agents from poly(caprolactone-L-lactide)/PEG porogen balloons; type: physicochemical; details: for period of constant release from balloon: loaded with 10% w/v solution
Experimental: In a typical experiment, dichloromethane solutions of poly(caprolactone-L-lactide) 70:30 w/w, Mw=100,000 and polyethylene glycol Mw=400 (PEG400) and PEG2000 mixed at a 1, 5, 10 and 20 w/w % per polymer were used for producing balloons by dipping as described above. The balloons were immersed in water to allow the leach-out of the water soluble PEG. The balloons were analyzed for pore size, uniformity of pores throughout the membrane, and diffusion of LHRH hormone and BSA (bovine serum albumin) as representative protein. Uniform micron size holes of a similar size were generated for the 1 and 5% PEG but more holes for the 5%, while the 20% PEG generated much larger holes throughout the wall which also affects the strength of the wall. […] The balloon remain inflated for about 4 months in 0.1M phosphate buffer solution at 37° C. before signs of degradation occur measured by a significant decrease in molecular weight and change in the flexibility and clarity of the balloons. In a continuation experiment, lyophilized powder of LHRH (10 mg) on dextrose (100 mg) was dispersed in glycerol (100 mg) and injected into the 10 mm diameter balloon and release under physiological conditions was determined.

[2] = Release from L-PLA-co PEG5000 hydrogel-wall balloons in aqueous media; type: physicochemical; details: 1 cm balloons of L-PLA-co PEG5000 triblock or 50:50 mixture with L-PLA, 200 and 300 micron wall thicknesses
Experimental: In a similar experiment, biodegradable balloons of 1 cm diameter were prepared from triblock copolymers of L-PLA-co PEG5000, Mw=80,000 or in a 50:50 mixture with L-PLA Mw=120,000 by the solvent casting on a gelatin mold method. Balloons with 200 and 300 micron wall thicknesses were prepared. These balloons swell when inserted in aqueous media to form hydrogel walls which are permeable to water soluble molecules.

With bovine serum albumin [BSA] the “period of constant release from balloon” value ([1]; 5% PEG balloons of poly(caprolactone-L-lactide) 70:30) was “a few months”, the “period of constant release from balloon” value ([1]; 20% PEG balloons of poly(caprolactone-L-lactide) 70:30) was “weeks” and the “release behaviour in comparison with the other loaded agents” value ([1]; poly(caprolactone-L-lactide)/PEG balloons) was “released for a longer time at low concentrations compared with the LHRH”. For the same substance, the “release from hydrogel-wall balloons” value [2] was “released at a very low level”.
